Series [1] in a line: Classification of functionalized branched peptides as fast or slow/non releasing. To be noted: ability to release the functional unit from the carrier peptide.
Series [2] concerns PANC-1 cells. Put plainly: Peptide internalization and drug release in PANC-1 cells, MALDI-Tof MS of supernatant and lysed cells. The note with it: 100 μM, 37° C.; for state of conjugate in the supernatant or in lysate: ether conjugated drugs. The text has this:
Cells were centrifuged, washed and then lysed in water after freezing and thawing.

The conditions of series [3]: phosphate buffer pH=7.4, 37° C.

Where two headings read alike, the source gives them in different places.

For the substance “NT(8-13)-betaAla-K(PEG-Combretastatin ether) [NT4(8-13)-O—CBTST]”, the “releasing class of the adduct” value in series [1] is reported as “slow releasing”. In series [2], the “course of the conjugate in cell medium and cell lysate” value (“course of the conjugate” for short) is listed as “decreased gradually in cell medium while increasing in cell lysate”; the “time of appearance in cell lysate” value stood at 1 h; the “time of maximum concentration in cell lysate” value was 48 h; the “state of conjugate in the supernatant or in lysate” value is given as “intact”.
Turning to “NT(8-13)-betaAla-K(PEG-5-fluorodeoxyuridine) [NT4(8-13)-5-FdU]”, the “releasing class of the adduct” value in series [1] is on record as “fast releasing”. In addition, in series [2], the “course of the conjugate” value was “decreased gradually in cell lysate and cell medium”.
With “NT(8-13)-betaAla-K(PEG-Combretastatin) [NT4(8-13)-CBTST]”, the “releasing class of the adduct” value in series [1] was “fast releasing”. Further, the “time of drug release by hydrolysis of ester bond” value in series [2] came out at 2 h.
With “NT(8-13)-betaAla-K(PEG-Monastrol) [NT4(8-13)-Mon]”, the “releasing class of the adduct” value in series [1] was “fast releasing”. Moreover, in series [2], the “time of drug release by hydrolysis of ester bond” value was 2 h.
On to “NT(8-13)-betaAla-K(PEG-Monastrol ether) [NT4(8-13)-O-Mon]”, for which the “releasing class of the adduct” value in series [1] is listed as “slow releasing”. For the same substance, in series [2], the “course of the conjugate” value was “decreased gradually in cell medium while increasing in cell lysate”; the “time of appearance in cell lysate” value amounted to 1 h; the “time of maximum concentration in cell lysate” value came to 48 h; the “state of conjugate in the supernatant or in lysate” value is recorded as “intact”.
“NT(8-13)-betaAla-K(PEG-6-mercaptopurine) [NT4(8-13)-6-MP]”: the 6-MP released turned out to be 100% in series [3] (after 30 min, 5 equivalents of GSH) and 86% in series [3] (after 135 min, 1 equivalent of GSH). The “releasing class of the adduct” value in series [1] is on record as “fast releasing”.
“NT(8-13)4-PEG-K(PEG-Fluorescein) [NT4(8-13)-Fluo]”: the “releasing class of the adduct” value in series [1] was “slow releasing”.

(Values after patent US20110319339A1, “NEUROTENSIN-DERIVED BRANCHED PEPTIDES AND USES THEREOF” (priority 2008, published 2011).)
